Like-named read-outs stand apart in the source and are kept apart here.

Protein sequences, listed by entry. Tags and fused reporters are not part of them.
UniProt Q8K4Z4, whole entry: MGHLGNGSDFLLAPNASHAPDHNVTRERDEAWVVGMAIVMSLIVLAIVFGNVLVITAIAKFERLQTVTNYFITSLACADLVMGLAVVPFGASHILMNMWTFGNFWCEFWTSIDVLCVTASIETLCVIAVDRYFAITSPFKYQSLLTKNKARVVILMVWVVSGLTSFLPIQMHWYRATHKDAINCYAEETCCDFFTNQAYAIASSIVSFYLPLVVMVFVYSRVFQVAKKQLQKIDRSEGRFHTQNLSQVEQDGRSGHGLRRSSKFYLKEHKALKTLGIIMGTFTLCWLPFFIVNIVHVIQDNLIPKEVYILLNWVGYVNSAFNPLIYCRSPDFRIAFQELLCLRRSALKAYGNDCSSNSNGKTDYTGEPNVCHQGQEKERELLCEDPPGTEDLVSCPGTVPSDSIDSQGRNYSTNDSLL

The target of the experiment is β2 adrenergic receptors in guinea pig trachea (Cavia porcellus, UniProt Q8K4Z4). Conditions: concentration 3.0E−07 M.

Consider `CC(C)(C)NCC(O)c1ccc(O)c(CO)c1` (centres unmarked) [Salbutamol, salbutamol], for which the “Percent of the Control Response to Salbutamol at 3.0E−07 M, Mean” value is, setting by setting: (Table 6) 101%; (Table 7) 104%.

For the origin of these results see US8268813B2, “Zilpaterol enantiomer compositions and methods of making and using such compositions” (Intervet International B.V., priority 2006, dated 2012).
